Assays:
[1] = Tablet-forming ability of APIs (self-granulation with water, hardness and friability of tablets); assay type: physicochemical; conditions: tablets of 99% API and 1% magnesium stearate, about 100 mg, wet granulated with purified water
Method: (§1) The viscosities of saturated aqueous solutions or aqueous solutions with different weight percentage of the compounds are measured with Rotational viscometers (Brooksfield, USA) at 25° C.
Each API listed in Table 1-1 is separately weighed […] and wet granulated in a high shear mixer using purified water. The wet granules are dried in an oven and sieved with 20 mesh screen. Each of the dried granules is separately transferred into a V-blender, and mixed with 5 g of magnesium stearate. The obtained mixture is compressed into tablets. Every tablet weighs about 100 mg, and contains magnesium stearate and an individual API.

[2] = Viscosity of saturated or unsaturated aqueous solutions of APIs, rotational viscometer (Brooksfield); assay type: physicochemical
Method: The viscosities of saturated aqueous solutions or aqueous solutions with different weight percentage are measured with Rotational viscometers (Brooksfield, USA) at constant temperature 25° C., and the rotation speed is 5-100 rpm.
as §1

Substance: L-arginine α-ketoglutarate
- The tablet-forming ability Hardness of tablets (kp) [1]: 3-8 kp
- Unsaturated aqueous solution at 25° C. Viscosity (cP) ([2]; aqueous solution, weight percent 55%): ~11 cP
- Saturated aqueous solution at 25° C. Viscosity (cP) ([2]; saturated aqueous solution): ~30 cP
